Source: PubChem (National Center for Advancing Translational Sciences (NCATS))
Nrf2 ARE act = activators of Nrf2 (ARE) signaling; AREc32 ARE-luciferase reporter (MCF7-derived line), luminescence, 24 h; Potency, µM (series often up to 46.1 µM), for inactives: at the highest dose activation, actives largely listed as activators; actives 0.31% (n = 410,000); AID 624171; further: potency means the concentration at half of the fitted maximal effect; % of control where 0% means no effect; nearly all actives have a fitted effect of over 65% in size
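ARE-driven firefly luciferase activity in AREc32 cells measured after a 24 hr compound exposure at 37 deg C, using Steady-Glo reagent and a 30 min room-temperature hold.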
miR-21 reporter = raises the signal of a miR-21 reporter | Potency, µM (doses to about 38.3 µM), for inactives: top-dose reporter change, positive = more light | HeLa miR-21 FLuc reporter, luciferase, 48 h | AID 2288 | 340,000 tested, under 10 active; active = well fitted rising curve with a large enough effect; inconclusive = small, poorly fitted or top-dose-only effect; inactive = no such curve, though single readings can be large or run the other way;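 also: % of control where 0% means no effect; miR-21 action dims this reporter so a rising signal means less miR-21 action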
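Using DMEM plus 10% FBS, HeLa miR-21-FLuc cells are incubated with test compounds (final up to about 40uM) for 48 hours; firefly luciferase signal is then imaged following reagent-mediated lysis.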
Nrf2 inh = inhibitors of Nrf2 signaling. Potency, µM (titrated, usually from 46 µM), inactives show top-dose activity change, negative = inhibition, most hits filed as inhibitors. AID 504444. actives 2.1% (n = 360,000). A549 ARE-Fluc reporter, luciferase luminescence, 18-24 h; further: potency means the concentration at half of the fitted maximal effect; on the % scale 0 is the no-effect control and ±100 the full control effect; nearly all actives have a fitted effect of over 60% in size
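Concentration-response testing used A549 ARE_Fluc cells at 5000 cells/well. Following an 18-24 h compound incubation, viability was read by fluorescence (Ex 405/Em 525) and luciferase output by luminescence.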
A549 viability = A549 cytotoxicity, counter-screen for Nrf2 inhibitors | actives 0.16% (n = 390,000) | AID 504648 | A549 ARE-Fluc cells, CellTiter-Fluor viability, 18-24 h | Potency, µM (titrated, usually from 46 µM), inactives show at the highest dose activity change, negative = cytotoxicity, usual class: inhibitors; further: potency means the concentration at half of the fitted maximal effect; on the % scale 0 is the no-effect control and ±100 the full control effect
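A549 ARE_Fluc cells in 5% FBS OPTI-MEM were exposed to compounds in concentration-response for 18-24 h at 37 deg C. Viability was read by CellTiter-Fluor fluorescence (Ex 405/Em 525) after 30 min, before the luciferase read.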
Mito fusion yeast = inhibitors of mitochondrial division or activators of mitochondrial fusion; AID 485298; Potency, µM (highest dose often 46.1 µM), for the others: at the top dose growth rescue (activation), hits mostly activators; S. cerevisiae fusion-defective mutant growth rescue, CellTiterGlo 48 h; actives 0.23% (n = 320,000); further: potency means the concentration at half of the fitted maximal effect; % of control where 0% means no effect; nearly all actives have a fitted effect of over 45% in size
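Growth-rescue viability read-out: after 48 h at the non-permissive 37C in glycerol/ethanol YPEG, yeast mitochondrial fusion mutants are measured by CellTiterGlo luminescence; compounds (23 nl pinned per well) restoring growth score as division inhibitors or fusion activators.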
Numbers without * were called inactive. An excerpt weighted towards active compounds, which were near 2.3% of everything screened. Unless noted, the call rests on the fitted dose curve; in most records, active means well fitted curve in the direction sought with a large enough effect; inconclusive means small, poorly fitted or top-dose-only effect, or another doubt; inactive means no such curve, though single readings can be large; an effect the other way counts as inactive or inconclusive.

How did C=C1OC(CO)(n2cnc3c(N)ncnc32)C(O)C1O (stereo not drawn) do in these assays?
Nrf2 inh: 4.3%; A549 viability: -3.1%

Results for CC(=O)NC1=CC(=O)c2nonc2C1=O ?
Nrf2 inh: 2.91µM*; A549 viability: 7.31µM*

How did CN1CCCC1CCNc1ncnc2ccc(-c3ccc4c(c3)OCO4)cc12 (stereo not drawn) do in these assays?
Nrf2 inh: 0.0%; A549 viability: -0.3%

What do the screens show for `Cc1ccc(/C=C/C(=O)OCC(=O)Nc2cccnc2Cl)o1`?
Nrf2 ARE act: 2.82µM*; Nrf2 inh: -9.2%; A549 viability: -2.3%

What do the screens show for `CSc1nnc2c(n1)OC(c1cccc(O)c1Cl)Nc1ccccc1-2` (stereo not drawn)?
Nrf2 ARE act: 5.7%; miR-21 reporter: -5.9%; Nrf2 inh: 6.1%; A549 viability: -9.6%

What do the screens show for `CN1CCc2cc(O)c(O)cc2C(c2ccccc2)C1` (stereo not drawn)?
Nrf2 ARE act: -1.2%; Nrf2 inh: -1.3%; A549 viability: 7.7%; Mito fusion yeast: inconclusive

How did C=CCN1CCc2c(cc(O)c(O)c2Br)[C@@H](c2ccccc2)C1 do in these assays?
Nrf2 ARE act: -0.4%; Nrf2 inh: 4.8%; A549 viability: 5.1%; Mito fusion yeast: 16.4µM*

What do the screens show for `COc1cccc(CNc2nc(Cl)nc3nc[nH]c23)c1`?
Nrf2 inh: inconclusive; A549 viability: 0.0%

Results for COc1cc2c(cc1OC)CN(C(=O)CCCOc1ccc(Cl)cc1Cl)CC2 ?
Nrf2 ARE act: 0.7%; miR-21 reporter: -4.3%; Nrf2 inh: 18.4µM*; A549 viability: -20.5%; Mito fusion yeast: 19.1%

How did CCCCOc1ccc(CNC(=O)c2ccc(NC(=O)N3CCCCc4ccccc43)cc2)cc1 do in these assays?
Nrf2 ARE act: -0.8%; miR-21 reporter: 0.4%; Nrf2 inh: inconclusive; A549 viability: 4.4%

How did CC(C)(C)Nc1ncnc2sc(-c3ccccc3)cc12 do in these assays?
Nrf2 ARE act: 0.6%; miR-21 reporter: 12.1%; Nrf2 inh: 11.6µM*; A549 viability: inconclusive; Mito fusion yeast: -12.4%

How did C=COCCCNc1ncnc2sc(-c3ccccc3)cc12 do in these assays?
Nrf2 ARE act: 0.0%; miR-21 reporter: 25.7%; Nrf2 inh: 13µM*; A549 viability: -15.7%; Mito fusion yeast: -16.3%

By substructure, those above containing four or more nitrogen atoms
How did C=C1OC(CO)(n2cnc3c(N)ncnc32)C(O)C1O (stereo not drawn) do in these assays?
Nrf2 inh: 4.3%; A549 viability: -3.1%

How did CN1CCCC1CCNc1ncnc2ccc(-c3ccc4c(c3)OCO4)cc12 (stereo not drawn) do in these assays?
Nrf2 inh: 0.0%; A549 viability: -0.3%

What do the screens show for `CSc1nnc2c(n1)OC(c1cccc(O)c1Cl)Nc1ccccc1-2` (stereo not drawn)?
Nrf2 ARE act: 5.7%; miR-21 reporter: -5.9%; Nrf2 inh: 6.1%; A549 viability: -9.6%

What do the screens show for `COc1cccc(CNc2nc(Cl)nc3nc[nH]c23)c1`?
Nrf2 inh: inconclusive; A549 viability: 0.0%

Later entries
How did OCCCNc1ncnc2sc(-c3ccccc3)cc12 do in these assays?
Nrf2 ARE act: 13.2%; miR-21 reporter: -12.6%; Nrf2 inh: inconclusive; A549 viability: 0.9%; Mito fusion yeast: 2.9%

What do the screens show for `Nc1c(-c2nc(-c3ccc4c(c3)OCO4)cs2)c2ccccn2c1C(=O)c1ccccc1`?
Nrf2 ARE act: -0.1%; miR-21 reporter: -0.5%; Nrf2 inh: -14.8%; A549 viability: -0.3%

Results for O=C(OCC#CCSc1nnc(-c2cccc3ccccc23)o1)c1ccc(F)nc1 ?
Nrf2 inh: 7.8%; A549 viability: -10.0%

Results for c1nc(NCCc2cnc[nH]2)c2ccc(-c3ccc4c(c3)OCO4)cc2n1 ?
Nrf2 inh: 11.3%; A549 viability: 17.7%

How did Cc1oc(-c2ccccc2Cl)nc1Cn1c(SCc2cccc(F)c2)nc2cccnc21 do in these assays?
Nrf2 ARE act: -1.3%; miR-21 reporter: 4.9%; Nrf2 inh: inconclusive; A549 viability: -21.7%

Results for COc1ccc(-c2nc(Cn3c(SCc4ccccc4F)nc4cccnc43)c(C)o2)cc1 ?
Nrf2 ARE act: -1.1%; miR-21 reporter: -8.5%; Nrf2 inh: inconclusive; A549 viability: -24.8%

What do the screens show for `COc1ccc(-c2nc(Cn3c(SCc4ccc(F)cc4)nc4cccnc43)c(C)o2)cc1`?
Nrf2 ARE act: -0.4%; miR-21 reporter: 0.3%; Nrf2 inh: 18.4µM*; A549 viability: inconclusive

What do the screens show for `COc1ccc(-c2nc(Cn3c(SCc4cccc(F)c4)nc4cccnc43)c(C)o2)cc1`?
Nrf2 ARE act: -1.2%; miR-21 reporter: 4.3%; Nrf2 inh: 20.6µM*; A549 viability: -24.6%

How did Cc1oc(-c2cccc(Cl)c2)nc1Cn1c(SCc2ccc(F)cc2)nc2cccnc21 do in these assays?
Nrf2 ARE act: 0.3%; miR-21 reporter: -7.8%; Nrf2 inh: 18.4µM*; A549 viability: -21.9%

How did Cc1ccc(Oc2nnc(-c3cccs3)c3ccccc23)cc1C do in these assays?
Nrf2 ARE act: 0.7%; miR-21 reporter: -3.7%; Nrf2 inh: 18.4µM*; A549 viability: -7.7%; Mito fusion yeast: 10.4%

Results for Cc1ccccc1NC(=O)c1c(C)oc2ccc(O)c(CN3CCCCCC3)c12 ?
Nrf2 ARE act: 3.8%; miR-21 reporter: 13.9%; Nrf2 inh: inconclusive; A549 viability: -3.8%

Results for O=C1Nc2ccccc2Oc2cc([N+](=O)[O-])cc(Oc3ccccc3)c21 ?
Nrf2 ARE act: 8.1%; miR-21 reporter: -8.0%; Nrf2 inh: inconclusive; A549 viability: -0.2%; Mito fusion yeast: 17.6%

Results for Cc1cccc(Oc2cc([N+](=O)[O-])cc3c2C(=O)Nc2ccccc2O3)c1 ?
Nrf2 ARE act: 7.2%; miR-21 reporter: -6.5%; Nrf2 inh: 16.4µM*; A549 viability: -12.7%; Mito fusion yeast: -5.1%

Results for Cc1ccc(C2CC(c3cccs3)=NN2C(=O)CSC2=NCCS2)cc1 (stereo not drawn) ?
Nrf2 ARE act: 11.6%; miR-21 reporter: 3.3%; Nrf2 inh: 16.4µM*; A549 viability: -19.5%; Mito fusion yeast: -0.9%

What do the screens show for `COc1ccc(C2CC(c3cccc(F)c3)=NN2c2ccc(S(N)(=O)=O)cc2)cc1` (stereo not drawn)?
Nrf2 ARE act: -0.1%; Nrf2 inh: inconclusive; A549 viability: -3.1%

Results for COc1ccc(C2=NN(C(=O)c3cccs3)C(c3ccc(OC)cc3)C2)cc1 (stereo not drawn) ?
Nrf2 ARE act: 2.7%; miR-21 reporter: -13.0%; Nrf2 inh: -25.2%; A549 viability: -1.7%; Mito fusion yeast: 11.2µM*

What do the screens show for `CCC(=O)N1N=C(c2cccs2)CC1c1ccc(C)cc1` (stereo not drawn)?
Nrf2 ARE act: 3.9%; miR-21 reporter: -8.4%; Nrf2 inh: -8.7%; A549 viability: -1.5%; Mito fusion yeast: 9.4%

Results for COc1ccc(C2=NN(c3ccc(C=O)cc3)C(c3ccccc3)C2)cc1 (stereo not drawn) ?
Nrf2 ARE act: 10.4%; miR-21 reporter: 9.0%; Nrf2 inh: -21.5%; A549 viability: -10.2%; Mito fusion yeast: inconclusive

How did O=Cc1ccc(N2N=C(c3ccccc3)CC2c2ccccc2)cc1 (stereo not drawn) do in these assays?
Nrf2 ARE act: 2.8%; miR-21 reporter: -4.7%; Nrf2 inh: inconclusive; A549 viability: inconclusive; Mito fusion yeast: 8.91µM*
